These results are taken from patent US20210205389A1, “METHODS AND COMPOSITIONS FOR TREATING NON-SMALL CELL LUNG CANCER” (Chang Gung Medical Foundation Keelung Chang Gung Memorial …, priority 2015, published 2021).

The subject of the assay is EGFR. Description: P-EGFR and EGFR quantification in CL97 xenograft tumors. The following applies: control = 1.00.

`COc1cc2ncnc(Nc3ccc(F)c(Cl)c3)c2cc1OCCCN1CCOCC1` [Gefitinib]: the EGFR is given as 1.74 fold change, the “P-EGFR (Y1068)” value is 1.70 fold change and the p-EGFR/EGFR came out at 0.98 fold change.
